Literature values as cited in patent US20240024490A1.

Chains of the proteins cited; added tags and fusions are not shown.
UniProt O14965, whole entry: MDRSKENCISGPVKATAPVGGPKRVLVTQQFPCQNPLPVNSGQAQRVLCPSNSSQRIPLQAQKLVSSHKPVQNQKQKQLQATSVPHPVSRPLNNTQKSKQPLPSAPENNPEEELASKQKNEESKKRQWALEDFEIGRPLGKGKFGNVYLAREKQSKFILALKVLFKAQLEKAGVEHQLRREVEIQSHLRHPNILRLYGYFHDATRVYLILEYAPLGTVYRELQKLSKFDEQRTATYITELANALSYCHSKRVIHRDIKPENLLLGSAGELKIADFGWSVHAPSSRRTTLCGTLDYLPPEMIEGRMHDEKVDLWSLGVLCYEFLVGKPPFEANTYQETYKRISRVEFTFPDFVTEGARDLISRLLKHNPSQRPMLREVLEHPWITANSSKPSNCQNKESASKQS
UniProt P31749, whole entry: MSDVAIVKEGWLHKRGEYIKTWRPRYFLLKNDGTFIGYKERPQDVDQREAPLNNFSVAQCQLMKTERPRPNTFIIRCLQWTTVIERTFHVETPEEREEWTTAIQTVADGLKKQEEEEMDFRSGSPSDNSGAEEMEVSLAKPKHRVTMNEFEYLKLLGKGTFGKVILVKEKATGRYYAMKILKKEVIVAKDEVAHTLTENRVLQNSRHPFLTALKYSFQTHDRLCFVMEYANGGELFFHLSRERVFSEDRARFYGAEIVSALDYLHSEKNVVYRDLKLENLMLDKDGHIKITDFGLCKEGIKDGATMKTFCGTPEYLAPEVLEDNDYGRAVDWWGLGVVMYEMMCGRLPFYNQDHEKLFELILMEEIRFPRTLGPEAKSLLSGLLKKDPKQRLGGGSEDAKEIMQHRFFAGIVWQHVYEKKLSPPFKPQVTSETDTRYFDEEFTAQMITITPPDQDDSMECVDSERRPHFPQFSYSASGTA
UniProt O15530, whole entry: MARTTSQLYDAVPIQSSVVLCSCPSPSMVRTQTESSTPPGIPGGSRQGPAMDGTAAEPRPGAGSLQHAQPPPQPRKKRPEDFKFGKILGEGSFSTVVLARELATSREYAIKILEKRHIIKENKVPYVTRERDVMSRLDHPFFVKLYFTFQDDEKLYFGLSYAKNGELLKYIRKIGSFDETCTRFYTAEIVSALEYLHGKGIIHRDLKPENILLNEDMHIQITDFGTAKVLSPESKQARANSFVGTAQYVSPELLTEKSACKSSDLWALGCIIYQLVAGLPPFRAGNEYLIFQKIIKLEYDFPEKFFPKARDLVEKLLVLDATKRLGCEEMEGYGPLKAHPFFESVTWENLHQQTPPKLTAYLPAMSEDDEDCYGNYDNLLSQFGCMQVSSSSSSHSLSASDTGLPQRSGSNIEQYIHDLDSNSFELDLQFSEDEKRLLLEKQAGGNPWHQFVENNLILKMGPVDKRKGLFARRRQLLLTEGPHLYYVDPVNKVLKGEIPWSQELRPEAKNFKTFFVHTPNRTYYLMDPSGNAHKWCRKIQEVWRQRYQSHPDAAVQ

What was measured:
Aurora A = Aurora A (Homo sapiens, UniProt O14965); conditions: cited from earlier work
AKT1 = AKT1 (Homo sapiens, UniProt P31749); conditions: read-out: Akt1 IC50; cited from earlier work
PDK1 = PDK1 (Homo sapiens, UniProt O15530); conditions: cited from earlier work

O=C(O)c1cc(-c2cccc(F)c2)nc2ccc(Br)cc12
IC50 (Aurora A; read-out: Average IC50): > 500 µM
Ki (Aurora A; read-out: Calculated Ki): > 100 µM

O=C(O)/C=C(\CCc1cccc(Cl)c1)c1ccccc1
IC50 (AKT1): > 300 µM
AC50 (PDK1): 9.5 n.e.
